{"source": "paper PMC6936329", "about": "(Cell chemical biology, 2019)", "key": {"MCF7 cells": {"system": "MCF7 cells", "experiment": "Phospho-pRb immunofluorescence and cell cycle analysis"}, "[1]": {"system": "kinases in mixed cell lysate", "experiment": "Multiplexed inhibitor bead mass spectrometry"}, "[2]": {"system": "34 breast cancer cell lines", "experiment": "GR dose-response measurements", "details": "on average"}, "[3]": {"system": "468 DNA-tagged recombinant kinase library", "experiment": "KINOMEscan profiling", "type": "binding", "details": "0.1 and 1 μM"}}, "data": [{"smiles": "CCN1CCN(Cc2ccc(Nc3ncc(F)c(-c4cc(F)c5nc(C)n(C(C)C)c5c4)n3)nc2)CC1", "note": "[abemaciclib]", "values": [{"measurement": "concentration at which pRb phosphorylation remained low", "setting": "MCF7 cells", "result": "≥ 1", "unit": "μM"}, {"measurement": "concentrations at which cytotoxicity was observed", "setting": "pRb-deficient cell lines", "result": "≥ 1000", "unit": "nM"}, {"measurement": "fold less potent than alvocidib", "setting": "CDK1/cyclin B", "result": "~ 10 fold"}, {"measurement": "fold less potent than alvocidib", "setting": "CDK9/cyclin K/T1", "result": "~ 10 fold"}, {"measurement": "fold less potent than alvocidib", "setting": "CDK7/cyclin H", "result": "~ 10 fold"}, {"measurement": "selectivity among CDK4/6 inhibitors tested", "setting": "[1]", "result": "least"}, {"measurement": "fold more potent than palbociclib at inducing cytostasis", "setting": "[2]", "result": "~ 5.5 fold"}, {"measurement": "selectivity among CDK4/6 inhibitors", "setting": "[3]", "result": "least"}]}]}
